{
  "source": "patent US20260176253A1",
  "about": "(priority 2021, published 2026)",
  "tested_on": "5HT2A sensor",
  "format": "cell-based",
  "data": [
    {"molecule": "CCN(CC)C(=O)N[C@H]1C=C2c3cccc4[nH]cc(c34)C[C@H]2N(C)C1", "note": "[LIS, lisuride]", "values": [
      {"measurement": "competition with 5-HT in the 5HT2A sensor assay in antagonist mode", "value": "compete off 5-HT"}
    ]}
  ]
}
